The source of these data is article PMC2956102 (International Journal of Molecular Sciences, 2010).

Chains of the proteins cited; added tags and fusions are not shown. Residues count along the entry.
UniProt P23739, 2-1013 partner limits assumed: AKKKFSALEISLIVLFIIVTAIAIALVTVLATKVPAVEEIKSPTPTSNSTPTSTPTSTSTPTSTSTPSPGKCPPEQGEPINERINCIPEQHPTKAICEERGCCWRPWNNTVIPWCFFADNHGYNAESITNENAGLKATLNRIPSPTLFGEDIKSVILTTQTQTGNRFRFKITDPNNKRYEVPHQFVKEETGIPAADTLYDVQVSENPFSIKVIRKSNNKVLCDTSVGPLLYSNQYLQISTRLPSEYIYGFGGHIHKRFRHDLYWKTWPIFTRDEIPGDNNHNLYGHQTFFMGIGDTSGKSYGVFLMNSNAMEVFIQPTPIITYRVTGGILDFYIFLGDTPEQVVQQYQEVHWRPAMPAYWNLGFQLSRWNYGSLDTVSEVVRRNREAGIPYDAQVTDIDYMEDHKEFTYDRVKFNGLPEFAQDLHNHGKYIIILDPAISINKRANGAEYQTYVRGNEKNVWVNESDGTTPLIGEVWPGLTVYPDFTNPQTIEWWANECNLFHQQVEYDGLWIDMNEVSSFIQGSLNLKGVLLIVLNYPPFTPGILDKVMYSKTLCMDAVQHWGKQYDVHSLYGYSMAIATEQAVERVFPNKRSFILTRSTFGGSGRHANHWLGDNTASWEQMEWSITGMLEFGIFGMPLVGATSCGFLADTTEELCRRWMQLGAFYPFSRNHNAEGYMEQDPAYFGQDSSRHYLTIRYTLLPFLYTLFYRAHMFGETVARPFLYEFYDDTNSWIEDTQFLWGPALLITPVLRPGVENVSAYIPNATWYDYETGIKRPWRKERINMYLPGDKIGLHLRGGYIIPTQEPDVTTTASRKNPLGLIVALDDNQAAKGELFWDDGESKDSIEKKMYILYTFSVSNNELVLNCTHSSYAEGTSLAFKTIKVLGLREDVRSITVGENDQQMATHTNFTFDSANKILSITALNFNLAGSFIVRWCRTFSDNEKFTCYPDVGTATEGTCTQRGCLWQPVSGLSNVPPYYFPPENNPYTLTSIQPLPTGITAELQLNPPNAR
UniProt P23739, 1014-1841 limits assumed: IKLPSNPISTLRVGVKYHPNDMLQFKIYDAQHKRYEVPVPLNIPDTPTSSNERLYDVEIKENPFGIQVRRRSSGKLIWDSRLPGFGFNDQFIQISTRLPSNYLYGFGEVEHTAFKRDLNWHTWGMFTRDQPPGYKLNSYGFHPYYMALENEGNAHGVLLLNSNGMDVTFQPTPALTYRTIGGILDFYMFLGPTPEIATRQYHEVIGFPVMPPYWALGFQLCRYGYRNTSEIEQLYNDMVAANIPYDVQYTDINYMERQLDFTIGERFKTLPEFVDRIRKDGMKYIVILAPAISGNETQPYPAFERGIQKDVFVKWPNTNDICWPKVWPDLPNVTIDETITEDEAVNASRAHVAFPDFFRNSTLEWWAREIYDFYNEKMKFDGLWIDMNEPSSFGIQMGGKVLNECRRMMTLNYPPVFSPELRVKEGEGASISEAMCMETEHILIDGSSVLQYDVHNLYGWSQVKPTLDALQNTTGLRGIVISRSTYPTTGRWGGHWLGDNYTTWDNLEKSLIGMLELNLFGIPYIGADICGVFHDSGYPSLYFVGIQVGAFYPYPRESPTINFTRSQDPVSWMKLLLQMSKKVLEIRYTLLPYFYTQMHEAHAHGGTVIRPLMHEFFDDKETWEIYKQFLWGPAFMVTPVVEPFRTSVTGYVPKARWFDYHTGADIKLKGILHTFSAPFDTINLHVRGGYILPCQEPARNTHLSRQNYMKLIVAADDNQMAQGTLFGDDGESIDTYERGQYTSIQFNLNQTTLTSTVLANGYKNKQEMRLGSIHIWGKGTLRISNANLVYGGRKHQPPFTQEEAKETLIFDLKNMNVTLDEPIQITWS

The test has as its target T1, intestinal sucrase (Rattus norvegicus, UniProt P23739).
T1 construct: 100 mg of rat intestinal acetone powder was homogenized in 3 mL of 0.9% NaCl solution; tissue Sigma Chemical Co. Ltd. (St. Louis, MO); host or cells: rat intestine (acetone powder, supernatant of the saline homogenate)
Description: Intestinal α-glucosidase (sucrase) inhibition assay, rat intestinal acetone powder. The class given is biochemical. As to conditions: 54 mM sucrose, pH 6.9, 37 °C, 60 min; means ± S.E.M., n = 3. The method, then: The assessment of α-glucosidase inhibitory activity was performed according to our previous report. Briefly, 100 mg of rat intestinal acetone powder was homogenized in 3 mL of 0.9% NaCl solution. After centrifugation (12,000 g × 30 min), 10 μL of the supernatant (maltase = 0.68 units/mg protein, sucrase = 0.10 units/mg protein) was incubated with 70 μL of substrate solution (37 mM maltose, 54 mM sucrose), and 20 μL of sample at various concentrations in 0.1 M phosphate buffer pH 6.9 at 37 °C for 30 min (maltase assay) and 60 min (sucrase assay). The mixtures were suspended in boiling water for 10 min to stop the reaction. The concentrations of glucose released from the reaction mixtures were determined by glucose oxidase method. Acarbose was used as a positive control for this assay.
The reaction was performed according to the above assay (α-glucosidase and pancreatic α-amylase). Results were expressed as a percentage inhibition of the corresponding control values.

A word on the IC50: it is the concentration that inhibits the measured activity by half.

Regarding `C[C@H]1O[C@H](O[C@H]2[C@H](O)[C@@H](O)[C@@H](O[C@H]3[C@H](O)[C@@H](O)C(O)O[C@@H]3CO)O[C@@H]2CO)[C@H](O)[C@@H](O)[C@@H]1N[C@H]1C=C(CO)[C@@H](O)[C@H](O)[C@H]1O` (stereo partly shown) [Acarbose], the IC50 turned out to be 90 ± 40 µM.
